Values quoted from earlier work in US20060240098A1, “Formulations for hyperforin-enriched hypericum fractions” (Aphios Corporation, priority 2004, published 2006).

Details: cited from earlier work

hyperforin [Hyperforin (Aphios)]
pKa: 4.8
